Experiment: Inhibition of [3H]- DPDPE binding to delta opioid receptor of guinea pig brain

For `CC(NC(=O)[C@@H](N)Cc1ccc(O)cc1)C(=O)N[C@@H](Cc1ccccc1)C(=O)N[C@@H](CC(=O)O)C(=O)N[C@H](C(=O)N[C@H](C(=O)NCC(N)=O)C(C)C)C(C)C` (single isomer, unassigned) [deltorphin C], the Ki was 1.7 nM.

Reference: BindingDB's records for doi:10.1021/jm00007a020 (Eastern Michigan University, 1995)
